Values quoted from earlier work, collected in patent US20200087374A1, “INTERACTION BETWEEN C-PEPTIDES AND ELASTIN RECEPTOR, A MODEL FOR UNDERSTANDING VASCULAR DISEASE” (Resiliun B.V., priority 2017, published 2020).

Settings: cited from earlier work

In the case of insulin, the plasma half-life is listed as ~4 min.
